Data on 13 compounds can be found in PubChem BioAssay AID1471 (National Center for Advancing Translational Sciences (NCATS), 2008).

The list shows a part of the results, in another mix than the full data. Some results for these compounds are left out of this collection, so the calls shown say nothing about other tests. The source made the active and inactive calls. The call rests on the fitted dose curve; in most records, active means well fitted activation curve with a large enough effect; inconclusive means small, poorly fitted or top-dose-only effect; inactive means no such curve, though single readings can be large or run the other way.

The test in a line: qHTS Multiplex Assay to Identify Dual Action Probes in a Cell Model of Huntington: Cytoprotection (ATP).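 Further: toxic huntingtin expression switched on by the ecdysone agonist tebufenozide; % of control where 0% means no effect; nearly all actives have a fitted effect of over 45% in size.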 The settings on record: PC12 HTT-Q103 induced, ATP luminescence, 40 h; at 10 µM unless noted. The text has this:
NIH Chemical Genomics Center [NCGC]
NIH Molecular Libraries Probe Production centers Network [MLPCN]
Assay Submitter (PI): Wei Zheng
Huntington's disease is a neurodegenerative disorder caused by a trinucleotide repeat expansion in Exon 1 of the Huntingtin gene. The CAG trinucleotide encodes glutamine and polyglutamine expansions cause cell death in selective areas of the brain. Huntington polyglutamine repeats have the tendency to form aggregates which are observable in later stages of the disease. The exact nature of the aggregates, whether toxic, protective, or insignificant, is unclear.
A stable PC12 cell line containing a gene fusion of Exon 1 of the Huntingtin gene linked to GFP under the control of the inducible ecdysone promoter were used as the cell-based model of Huntington Disease for high throughput screening. Exon 1 of the Huntingtin gene contained an expansion of 103 polyglutamines (Q103) which, when expressed, caused cell death and distinct, bright GFP aggregates. The amount of cell death and the size and intensity of GFP aggregates increased over time and induction level. The cell death were quantified with a measurement of ATP content in the cells. A maximal 40-50% of cell death was observed when the Huntington gene was induced in this cell line.
We optimized this assay in a homogeneous 1536 well format. A quantitative high throughput screen (qHTS) was conducted on the PC12 cells which were induced to express the toxic fusion construct. Small molecules which prevented cell death were identified by using a luminescent ATP quantification method (Perkin Elmer's ATPlite).
PC12 cells stably containing a construct with an ecdysone inducible promoter expressing GFP fused to the exon 1 of HTTQ103 (Huntington protein which containing a 103 ployglutamine expansion) were used.
NCGC Assay Protocol Summary:
Sequence, Parameter, Description
1, Reagent, 5 uL 1500 cells/well 1536 TC treated White clear bottom plate
2, Compound, 23 nL Tebufenozide inducer (100 nM final) to all columns
3, Compound, 23 nL 40 uM to 0.5 nM Libraries
5, Reagent, 5 ul ATPLite cell death assay reagent
6, Detector, 4 sec integration with a Viewlux Luminescent
Media consisted of phenol red free DMEM + 5% equine serum (Hyclone # SH30072.03 ), 5% supplemented Bovine Calf Serum (Hyclone # SH30074.03 ), 1x pen/strep, no G418
Control columns: 1 = DMSO, 2= 2 uM teb dilns (1:1), 4 = 100 nM Teb inducer. Sample columns received 100 nM Teb.
(In general: Quantitative high-throughput screening tests each substance at several concentrations.)
On to `COc1cccc(C(=O)NCC2(N3CCCCC3)CCCCC2)c1`, for which the cytoprotection (ATP increase) was inactive: 10.4% [at 56.4 µM].
For `CN1CCC[C@H](OC(=O)[C@](O)(c2ccccc2)C2CCCC2)C1` the value was inactive: 16.2%.
For `CN1CC[C@H](OC(=O)[C@](O)(c2ccccc2)C2CCCC2)C1` the value was inactive: -0.351%.
For the compound `O=C(OC1CN2CCC1CC2)C(CO)(c1ccccc1)c1ccccc1` (stereo not drawn), the cytoprotection (ATP increase) was inactive: -16.6%.
On to `C=C(C)C#C[C@@](O)(C(=O)OC1CCN(C)CC1)c1ccccc1`, for which the cytoprotection (ATP increase) is inactive: -4.93%.
For `COc1ccc(Br)c(C(=O)NCC2(N3CCCCC3)CCCCC2)c1` the value was inactive: 7.41%.
Regarding `CN(C)c1cccc(C(=O)NCC2(N(C)C)CCCCC2)c1`, the cytoprotection (ATP increase) is inactive: -1.41% [at 56.4 µM].
For `O=C(NCC1(N2CCCCC2)CCCCC1)c1cc([N+](=O)[O-])ccc1Cl` the value was inactive: 3.75% [at 56.4 µM]; for `CCN(CC)CC(C)C(C)OC(=O)C(O)(c1ccccc1)c1ccccc1` (stereo not drawn), inactive: 17.5%.
Consider `CC(C)N1C(=O)CC2(CCN(CCOC(=O)C(O)(c3ccccc3)c3ccccc3)CC2)C1=O`, for which the cytoprotection (ATP increase) is inactive: 9.64% [at 56.4 µM].
Consider `CN(C)C1CCCC1OC(=O)C(O)(c1ccccc1)c1ccccc1` (stereo not drawn), for which the cytoprotection (ATP increase) is inactive: -11.5%.
As for `CN1CCCC(OC(=O)C(O)(c2ccccc2)c2ccccc2)C1` (stereo not drawn), the cytoprotection (ATP increase) is inactive: -4.06% [at 56.4 µM].
The result for `C=CCN1CCN(CCOC(=O)C(O)(c2ccccc2)c2ccccc2)CC1` reads inactive: -6.17%.
